Apparent affinities of Ab-14 variants for a coronavirus HR2 peptide

Target: peptide PDVDLGDISGINAS, taken from heptad repeat 2 (HR2) of SARS-CoV-2 spike.

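Phage display of a naive human antibody library on the peptide gave the parent. Designed CDR sequences, proposed from the first random library and measured here. Several design methods are mixed in this list. AlphaSeq pools MATa yeast showing the antibodies with MATalpha yeast showing the peptide. Mating (16 h, 30 °C) was followed by selection of diploids and sequencing of their barcodes. Scores were corrected for input abundance and mapped to Kd with protein pairs of known affinity run in the same pool. The assay was run in six technical replicates.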

Parent scFv Ab-14: VH joined to VL by three GGGGS repeats. Changes lie in the heavy chain CDRs alone.
VH: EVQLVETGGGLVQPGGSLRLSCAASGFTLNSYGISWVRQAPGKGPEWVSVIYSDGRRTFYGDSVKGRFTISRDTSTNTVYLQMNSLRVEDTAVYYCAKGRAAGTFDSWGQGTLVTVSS
VL: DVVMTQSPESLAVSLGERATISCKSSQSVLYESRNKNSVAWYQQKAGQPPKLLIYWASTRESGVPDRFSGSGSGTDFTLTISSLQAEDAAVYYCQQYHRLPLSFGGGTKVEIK

Variants are written as CDR1, CDR2 and CDR3 of the heavy chain (limits as in the source). Parent: GFTLNSYGIS, VIYSDGRRTFYGDSVK, GRAAGTFDS.
Affinities are written as log10 Kd with Kd in nM; a lower number is a better binder.
A mean of the replicates is given; it leaves out those without a signal.
Where no diploid with the target was found in any replicate, the entry reads "no signal": below detection, most likely a poor binder, though not proof of it.
Values of this round are not directly comparable with the first-round values of the same sequences.

mean, log10 nM	detected	CDR-H1	CDR-H2	CDR-H3
no signal	0/6	GFDLEEMGVS	VIYHDGIRTAYKQKVK	GQAAGTFDL
1.65	2/6	GFRLNSYGIS	VIYSDGRRTFYGDSVK	GQAAGTFES
0.15	6/6	GFDLNEYGIS	VIYADGMRTQYIDSVK	GENAGTFDL
0.86	5/6	GFDLNEYGIS	VIYADGVRTQYIDSVK	GNEAGTFDV
0.99	1/6	GFTPNSYGIS	VIYSDGRRTFYGDKVK	GGAYGTFFS
-0.54	6/6	GFDLNEYGIS	VIYADGMRTFYADSVK	GNVAGTFDQ
-0.24	6/6	GFDLDEYGIS	VIYADGKRTFYSDSVK	GENAGTFDV
1.44	1/6	GFDLDEYGIS	VIYADGKRTSYQADVK	GSQVGNALV
-0.16	6/6	GFDLDEYGIS	VIYADGKRTFYQDSVK	GNVAGTFDS
0.09	6/6	GFDLDEYGIS	VIYADGMRTVYADSVK	GNIAGTFDS
-0.12	6/6	GFDLNEYGIS	VIYADGRRKAYADDVK	GENAGTFDV
-0.36	6/6	GFDLDEYGIS	VIYADGMRTVYADSVK	GNVAGTFDL
-0.50	6/6	GFDLNEYGIS	VIYADGMRTFYADSVK	GENAGTFDV
no signal	0/6	GFTLNDYWIS	VIYSDGRRTQYIDSVK	GRAAGTFDS
no signal	0/6	GFTLNEYGIS	VIYSDGRRTFYADSVK	GRAAVTFDN
1.29	5/6	GFTLNSYGIS	VIYSDGKRTFYGDSVK	GRQAGTFDT
-0.25	6/6	GFTLNEYGIS	VIYSDGRRTFYGDSVK	GRNAGTFDA
no signal	0/6	GFTTNSYGIS	VIYSDGRRTFYGDSVE	GRAAGTFRS
0.55	6/6	GFDLNSYGIS	VIYSDGRRTFYGDSVA	GQAAGTFDQ
no signal	0/6	GFTLNEYGIS	VIYSDGRRTFYGDSVK	GRAAGTFWS
0.98	6/6	GFDLNSYGIS	VIYSDGRRTFYGDSVK	GQAAGTFDM
1.19	6/6	GFTLNSYGIS	VIYSDGIRTFYHDSVK	GRQAGTFDS
1.23	6/6	GFTLNSYGIS	VIYSDGVRTFYADSVK	GRAAGTFDS
1.41	6/6	GFDINEYGVS	VIYADGMRSYYDDKVK	GSNGDLLEV
2.28	5/6	GFNLNSYGIS	VIYSDGRRTFYADDVK	GNAAGTFDS
-0.14	6/6	GFDLNEYGIS	VIYADGVRTFYADSVK	GEVAGTFDI
0.57	6/6	GFDLDEYGIS	VIYADGVRKAYADSVK	GENAGTFDV
0.26	6/6	GFSLNSYGIS	VIYSDGRRTAYGDSVK	GKAAGTFDS
no signal	0/6	GFTLDSYGIS	VIYSDGRRTPYGDSVK	GRAAGTALS
no signal	0/6	GFDLNSYGIS	VIYSDGRRTFYGDSVK	GRLAWTFDS
-0.70	6/6	GFDLNEYGIS	VIYADGMRTAYANSVK	GQNAGTFDV
0.04	6/6	GFDLNEYGIS	VIYADGKRTAYADSVK	GNVAGTFTL
1.31	6/6	GFNLNSYGIS	VIYSDGRRTMYGDSVK	GRNAGTFDS
no signal	0/6	GFTLNDYGIS	VIYSDERRTFYGDSVK	GRAALFFIQ
0.14	6/6	GFDLNSYGIS	VIYSDGRRTFYGDMVK	GRTAGTFDT
no signal	0/6	GFDVQEYGIS	VIYADGRRTQYTDAVK	GKLNMVLFV
3.51	1/6	GFDIEEYGIS	VIYADGIRTSYQNKVK	GRSGGIINV
no signal	0/6	GFDLEEYGIS	VIYADGRRTAYADNVK	GMSGADGMF
0.51	6/6	GFTLDSYGIS	VIYSDGRRTFYADSVK	GKAAGTFDS
no signal	0/6	GFTLNSYGIS	VIYSDGRRTFYGPSVK	GRAACTFDS
no signal	0/6	GFTLDSYGIS	VIYSDGRRTFYGDSVK	GRAAGFFIS
2.48	1/6	GMNLDEYGIS	VIYADGLRYHYANKVK	GEMAGFFMD
-0.44	6/6	GFDLDEYGIS	VIYADGQRTAYADNVK	GENAGTFDV
-0.42	3/6	GFDLDEYGIS	VIYADGKRTAYADDVK	GNNAGTFDI
0.72	6/6	GFDLNSYGIS	VIYSDGRRTFYGDSVK	GQAAGTFDI
no signal	0/6	GFTLNEYGIS	VIYSDGRRTFYTDKVK	GRFAGTFDS
-0.55	6/6	GFDLNEYGIS	VIYADGMRTAYSDSVK	GQTAGTFDV
0.57	6/6	GFNLNTYGIS	VIYSDGRRTFYADSVK	GQAAGTFDS
-0.17	6/6	GFDLDEYGIS	VIYADGRRTAYSDSVK	GEVAGTFDI

From the list, the first 5 with no signal in any replicate:

CDR-H1	CDR-H2	CDR-H3	mean, log10 nM	detected
GFDLEEMGVS	VIYHDGIRTAYKQKVK	GQAAGTFDL	no signal	0/6
GFTLNDYWIS	VIYSDGRRTQYIDSVK	GRAAGTFDS	no signal	0/6
GFTLNEYGIS	VIYSDGRRTFYADSVK	GRAAVTFDN	no signal	0/6
GFTTNSYGIS	VIYSDGRRTFYGDSVE	GRAAGTFRS	no signal	0/6
GFTLNEYGIS	VIYSDGRRTFYGDSVK	GRAAGTFWS	no signal	0/6

In the paper, a design with two or fewer of six values counts as a poor binder.
Nonspecific signal, from three strains lacking the peptide, appeared in 1% of pairings of all heavy chain designs, centred on 2.08 (5% of these signals below 0.84); values are not corrected for it.

Values reported by Li et al. 2023, doi:10.1038/s41467-023-39022-2 (FLAb copy).